Source: patent publication US20030064070A1 (Janssen / Centocor, published 2003)

Protein sequences, listed by entry. Tags and fused reporters are not part of them. Residues count along the entry.
UniProt P01375, 77-233 limits assumed: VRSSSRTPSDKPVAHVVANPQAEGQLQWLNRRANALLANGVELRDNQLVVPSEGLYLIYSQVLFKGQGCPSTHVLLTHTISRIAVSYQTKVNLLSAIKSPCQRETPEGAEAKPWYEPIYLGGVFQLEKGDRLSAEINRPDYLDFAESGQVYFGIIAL

B1: mouse anti-human TNF IgG1 mAb designated A2 (antibody, V domains shown)
VH: EVKLEESGGGLVQPGGSMKLSCVASGFIFSNHWMNWVRQSPEKGLEWVAEIRSKSINSATHYAESVKGRFTISRDDSKSAVYLQMTDLRTEDTGVYYCSRNYYGSTYDYWGQGTTLTVS
VL: DILLTQSPAILSVSPGERVSFSCRASQFVGSSIHWYQQRTNGSPRLLIKYASESMSGIPSRFSGSGSGTDFTLSINTVESEDIADYYCQQSHSWPFTFGSGTNLEVK

Legend:
[1] = target: recombinant human TNFα (rhTNF) (human) (UniProt P01375); assay: cell-based or functional assay
[2] = target: T1, recombinant human TNFα (rhTNF) (human, UniProt P01375 77-233); assay: Scatchard analysis, direct binding of 125I-labelled antibody to immobilized rhTNFα in a 96-well plate
T1 construct: Several commercial sources were used in the different assays; also called rhTNFα; hTNFα

| Molecule | IL-6 in supernatant of FS-4 fibroblasts, TNF 7.5 ng/ml, antibody 4 µg/ml [1] | plasma clotting time with HUVEC lysate, TNF 25 ng/ml, antibody 0.12 µg/ml [1] | plasma clotting time with HUVEC lysate, TNF 25 ng/ml, antibody 0.37 µg/ml (row printed as 'A2') [1] | plasma clotting time with HUVEC lysate, TNF 25 ng/ml, antibody 1.10 µg/ml [1] | plasma clotting time with HUVEC lysate, TNF 25 ng/ml, antibody 3.30 µg/ml [1] | plasma clotting time with HUVEC lysate, TNF 25 ng/ml, antibody 10.00 µg/ml [1] | plasma clotting time with HUVEC lysate, TNF 250 ng/ml, antibody 0.12 µg/ml [1] | plasma clotting time with HUVEC lysate, TNF 250 ng/ml, antibody 0.37 µg/ml (row printed as 'A2') [1] | plasma clotting time with HUVEC lysate, TNF 250 ng/ml, antibody 1.10 µg/ml [1] | plasma clotting time with HUVEC lysate, TNF 250 ng/ml, antibody 10.00 µg/ml [1] | Ka [2] |
| --- | --- | --- | --- | --- | --- | --- | --- | --- | --- | --- | --- |
| chimeric A2 (cA2) anti-TNF antibody | 0.3 ng/mL | 118 s | 153 s | 145 s | 147 s | 185 s | 64 s | 73 s | 106 s | 114 s | – |
| B1 | – | – | – | – | – | – | – | – | – | – | 5e+08 M⁻¹ |
